According to US5175158A, “Condensed diazepinones, processes for preparing them and pharmaceutical compositions containing these compounds” (Dr. Karl Thomae, GmbH, priority 1987, dated 1992):

Biological target: muscarinic receptors (cerebral cortex)
Experiment: Receptor binding test in vitro, cerebral cortex (3H-N-methylscopolamine displacement)
Parameters: species or system rat (male Sprague-Dawley)
Settings: 0.3 nanomolar 3H-NMS, 30° C., 45 minutes, pH 7.4

CCN(CC)CC1CCCCN1CC(=O)N1c2ccccc2C(=O)Nc2cccnc21 (stereo not shown) [Substance E, 11-[[2-[(diethylamino)methyl]-1-piperidinyl]acetyl]-5,11-dihydro-6H-pyrido [2,3-b][1,4]benzodiazepin-6-one, reference compound]
IC50: 1200 nM
